Data published in patent US7445802B2, “Site-specific in situ generation of allicin using a targeted alliinase delivery system for the treatment of cancers, tumors, infectious diseases and other allicin-sensitive diseases” (Yeda Research and Development Co. Ltd, priority 2000, dated 2008).

Assays:
Type in all cases: cell-based
Conditions in all cases: concentrations of up to 200 μM
CB-2 cells = assay: Trypan blue viability of CB-2 cells
Method: (§1) The following cell lines were used: N87 human gastric tumor cell line expressing the ErbB-2 receptors (described by Park et al, 1990); CB-2 cell line, generated by transfection of Chinese hamster ovary (CHO) cells with mammalian expression vectors that direct expression of ErbB-2 (Tzahar et al, 1996); and 32D cell line known to be devoid of the ErbB-2 receptors (described by Pinkas-Kramarski, 1996).
(§2) Viability of living cells was done after staining with Trypan Blue (0.025%) for 10 minutes.
(§3) In parallel, CB-2 cells treated with alliin or allicin were stained with Trypan blue to monitor cell viability.
(§4) Cell cultures of N87 (20,000 cells/well) were grown in 96-well plates and 32D cells were grown in suspension in 12-well plates (200,000 cells/ml). Cells were treated with: none, mAb ErbB-2 or mAb-ErbB-2-alliinase conjugate (total protein 2 μg/20,000 cells) for 1 hour at 37° C.

N87 cancer cells = assay: Trypan blue viability of N87 cells
Method: as §1, §2, §3, §4

[1] = test system: normal human foreskin fibroblasts; assay: Trypan blue viability of normal human foreskin fibroblasts
Method: as §2, §3

Measured: toxic effects

S-allyl-L-cysteine sulfoxide [alliin]
no toxic effects: CB-2 cells | N87 cancer cells | [1]
